Experimental data as given in ChEMBL document CHEMBL1667779, “Structure-based parallel medicinal chemistry approach to improve metabolic stability of benzopyran COX-2 inhibitors” (Bioorg Med Chem Lett, 2011).

By UniProt entry, the sequences of proteins in these tests, tags left out.
UniProt P23219, whole entry: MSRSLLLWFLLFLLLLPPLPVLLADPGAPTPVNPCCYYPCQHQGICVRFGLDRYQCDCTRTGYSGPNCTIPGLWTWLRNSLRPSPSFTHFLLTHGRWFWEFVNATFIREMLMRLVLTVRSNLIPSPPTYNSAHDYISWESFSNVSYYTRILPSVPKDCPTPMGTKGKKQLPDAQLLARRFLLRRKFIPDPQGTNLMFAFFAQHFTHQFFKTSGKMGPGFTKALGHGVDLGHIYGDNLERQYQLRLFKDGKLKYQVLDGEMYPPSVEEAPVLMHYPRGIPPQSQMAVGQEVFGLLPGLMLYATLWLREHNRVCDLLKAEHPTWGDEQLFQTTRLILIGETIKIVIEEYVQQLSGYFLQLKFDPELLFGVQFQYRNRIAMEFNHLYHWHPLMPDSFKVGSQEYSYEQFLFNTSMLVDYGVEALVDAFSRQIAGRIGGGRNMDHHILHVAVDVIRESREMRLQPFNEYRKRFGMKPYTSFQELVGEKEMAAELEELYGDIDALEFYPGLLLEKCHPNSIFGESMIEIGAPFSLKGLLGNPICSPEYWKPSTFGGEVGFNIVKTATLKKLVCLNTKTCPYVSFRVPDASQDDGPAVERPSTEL

Biological target: Prostaglandin G/H synthase 1 (Homo sapiens, UniProt P23219)

With CCSc1ccc(-c2cc(Cl)cc3c2OC(C(F)(F)F)C(C(=O)O)=C3)cc1 (stereo unspecified) as the compound, how does the IC50 read?
The IC50 was 75.9 µM.
